Earlier results in patent publication US11568956B2, “Methods for identifying inhibitors of amyloid protein aggregation” (Treventis Corporation, priority 2008, dated 2023).

Amino acid sequences for entries named in this document (tags omitted). Residues count along the entry.
UniProt P05067, 672-711 limits assumed: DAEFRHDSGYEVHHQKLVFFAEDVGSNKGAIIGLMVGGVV

Molecular target: Aβ (Homo sapiens, UniProt P05067)
Details: unit not in the table, μM; Masuda test set; read-out: Expt (IC50); cited from earlier work

Substance | IC50
Catechin | > 40 µM
Catechin gallate | 5 µM
